## Binding of CDR-mutated scFvs to a peptide of the spike HR2 region

Source: Engelhart et al. 2022 (doi:10.1038/s41597-022-01779-4), MIT Lincoln Laboratory and A-Alpha Bio; data file from the FLAb repository.

Target: peptide PDVDLGDISGINAS, taken from heptad repeat 2 (HR2) of SARS-CoV-2 spike.

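Variants in AAYL51 differ from the parent at up to three CDR positions; double and triple changes were sampled at random. In AlphaSeq, yeast of one mating type display the scFv and yeast of the other type display the target. After mating in shaken culture at 30 °C for 16 h, diploids were selected and their barcode pairs sequenced. Read counts were normalised to the haploid input and turned into Kd by a linear fit to BCL2-family pairs of known affinity, for each replicate. Mating was done three times.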

The variants keep the light chain, the linker and the frameworks of Ab-91 (scFv order VL, a (GGGGS)3 linker, VH).
VL: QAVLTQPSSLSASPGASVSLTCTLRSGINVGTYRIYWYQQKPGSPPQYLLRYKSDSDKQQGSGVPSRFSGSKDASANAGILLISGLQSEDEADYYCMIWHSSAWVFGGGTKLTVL
VH: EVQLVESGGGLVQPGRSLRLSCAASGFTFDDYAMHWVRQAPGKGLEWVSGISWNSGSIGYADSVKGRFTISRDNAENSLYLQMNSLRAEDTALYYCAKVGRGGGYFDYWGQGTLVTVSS

Variants are written as CDR1, CDR2 and CDR3 of the heavy chain (limits as in the source). Parent: GFTFDDYAMH, GISWNSGSIGYADSVK, VGRGGGYFDY.
Values are apparent Kd, the geometric mean of the replicates that gave a signal; lower means stronger binding.
"not detected" means that the variant was in the library but no mating with the target was seen in any replicate; the authors take this as a sign of poor binding, and no number exists.
Empty control strains, which show no peptide, gave a signal in 21% of pairings with library AAYL51; the median was 34 µM and 95% of these signals were weaker than 1.8 µM. No background was subtracted.

CDR-H1 | CDR-H2 | CDR-H3 | apparent Kd | detected
GFTFDDYAMH | GISWNSASIGYADSCK | VGRGGGYFDY | 28 nM | 3 of 3
GFTFDDYAMH | GISWHSGSIGYADSVK | VGAGCGYFDY | 250 µM | 2 of 3
GFTFDNYAMH | GISWNSGSPGYADSTK | VGRGGGYFDY | 55 µM | 2 of 3
KFTFDDYAMH | GISWNSGSIGYADSVK | VGRGGFYFDF | 200 µM | 3 of 3
GFTFPDYSMH | GISWHSGSIGYADSVK | VGRGGGYFDY | 17 nM | 3 of 3
GFTFDDYAMH | GISWNSGSPGYADSVK | AGRGGGYFDY | 1.5 µM | 2 of 3
KFSFDIYAMH | GISWNSGSIGYADSVK | VGRGGGYFDY | not detected | 0 of 3
GFTFDLYAMH | GISWNSGSWGYADSVK | VGRGGGYFDL | 41 nM | 3 of 3
GFTFDDYAMH | GQSWNSGSIGHADSVK | VGRGGGRFDY | not detected | 0 of 3
GFTFDDYAMH | DISWNSGSIGYADSVK | VFRGGGGFDY | not detected | 0 of 3
GFTFDDGAMH | GISWNSGSIGYADSVK | VGRGGRYPDY | not detected | 0 of 3
GFTFDDYAMA | GISWNSGCICYADSVK | VGRGGGYFDY | 76 µM | 2 of 3
GFTFDLYAMH | GISWNSGSIGYADSVK | KGRRGGYFDY | not detected | 0 of 3
PFTFDDYAMH | GQSWNSGSAGYADSVK | VGRGGGYFDY | 950 µM | 1 of 3
GFTFDDYAMK | GISWNSGSIGYADSVK | FGRGGGVFDY | not detected | 0 of 3
GFTFDDYVRH | GISQNSGSIGYADSVK | VGRGGGYFDY | not detected | 0 of 3
GFTFWDYAMH | GISWNSGSIFYADSVK | VGVGGGYFDY | not detected | 0 of 3
GFTFKDYACH | GISDNSGSIGYADSVK | VGRGGGYFDY | 21 µM | 2 of 3
GFTFDDYAMH | GISLNTGSIGYADSVK | VGRGGGYFDY | not detected | 0 of 3
GFTFDDYAMH | MISWNSGYIGYADSVK | VGRGCGYFDY | not detected | 0 of 3
GFTFDDAAMH | GISWNSGSIGYADSVK | VGRSGGYDDY | 42 µM | 3 of 3
GFTFDNYGMH | GISWNSGSIGYADSVK | VGRGEGYFDY | 39 µM | 1 of 3
GFTFDDYAMH | GISWASGSIGYTDSVK | VGRGGNYFDY | 14 µM | 1 of 3
GFTQDDYAMH | GISWNSGSIEYADSVK | VGRGGGNFDY | not detected | 0 of 3
GFTFDDYAWH | GILWNSGSIGYADSVK | IGRGGGYFDY | 640 nM | 1 of 3
GFTFDDYAMH | GISWNSGSIGYARSVK | VGRQGGYFVY | 77 µM | 1 of 3
GFTFDDYAMH | IISWNSGSIGYADCVK | VGRGGGMFDY | not detected | 0 of 3
GFTFDDYAMK | GISWNSGSIGYADQPK | VGRGGGYFDY | 190 µM | 2 of 3
GFTFDDYAMH | GSSWNSGSIGYADKPK | VGRGGGYFDY | 100 µM | 3 of 3
GFTFDVYAMP | GISWNSGSIGVADSVK | VGRGGGYFDY | not detected | 0 of 3
GFTFDDYAMH | GIMWNSGSEGYADSVK | RGRGGGYFDY | not detected | 0 of 3
GFTFDDYAMH | GISWNSGSIGAADSVK | SGRGGGYFDH | 3.2 µM | 1 of 3
GFTFDDYAMH | GISWNSGSIGYAMSCK | VGRGGGYFDY | not detected | 0 of 3
GFTFDDYAMH | GISMNSGSIGYASSVK | VGRGGGYFDS | 2.5 nM | 3 of 3
GFTFDDYAMH | KISWNSGSIYYADSVK | VGRPGGYFDY | not detected | 0 of 3

The remaining entries, values ahead:

apparent Kd | detected | CDR-H1 | CDR-H2 | CDR-H3
86 µM | 2 of 3 | AFTFDDYAMK | PISWNSGSIGYADSVK | VGRGGGYFDY
59 nM | 3 of 3 | GFTFDDYAMH | GISWNSESIGYIDSVK | VGRGGGYDDY
not detected | 0 of 3 | GFTFDDYAMH | GMGNNSGSIGYADSVK | VGRGGGYFDY
4.4 µM | 2 of 3 | GFTFDDYAMH | GISWNSGSIGYADSVK | VWRGGGYFVG
19 nM | 3 of 3 | GFTFRDYAMH | GISWNCGSIGYSDSVK | VGRGGGYFDY
7.3 µM | 1 of 3 | GWTFDDYAMV | GISWNSGSIGYADSHK | VGRGGGYFDY
not detected | 0 of 3 | KFTFDDYAMH | GISWPSGSIGYADSVK | VGQGGGYFDY
not detected | 0 of 3 | GFTRDDYAPH | GISWNSGSIGYADSVK | VGRFGGYFDY
450 µM | 2 of 3 | GFTFDDYAML | GISWNSGSIGYADSVK | VGRGGGWFCY
not detected | 0 of 3 | GFTFDDYDMH | GISWNSCSGGYADSVK | VGRGGGYFDY
6.7 µM | 1 of 3 | GFTFDDYAMH | GISWNSGSIGYANSQK | VGRGGGNFDY
42 µM | 1 of 3 | GFTFDDYAMH | SISANSGSIGYADSVK | VGDGGGYFDY
65 µM | 1 of 3 | GFTFDDYAMH | HISWNSGSIGYADSVK | VGRFGGYFQY
not detected | 0 of 3 | GFTFDDYAML | GESWNSGSIGYAPSVK | VGRGGGYFDY
970 nM | 2 of 3 | GFTFDDYAHH | GISWDSGSIGYADSVK | VGRGHGYFDY
120 µM | 3 of 3 | LMTFDDYAMH | MISWNSGSIGYADSVK | VGRGGGYFDY
60 µM | 2 of 3 | GFTFDDMAMH | GISWNSWSIGYADSVK | KGRGGGYFDY
11 µM | 1 of 3 | GFTFDDYAME | GISWNRGSIGYADSVF | VGRGGGYFDY
33 µM | 3 of 3 | GFTFDDYAMH | GITWNSGSIGYADSVK | VGRGGGNFDY
not detected | 0 of 3 | GFTFDDYAMH | YISWNSGSIGYATSVK | VGWGGGYFDY
160 µM | 3 of 3 | GFLFDTYAMH | GISWNSGSIGYAPSVK | VGRGGGYFDY
not detected | 0 of 3 | GFTFDDYNMH | GISWNSGSIGYADEVK | VGRGGGYKDY
230 µM | 2 of 3 | GFTFDDYAMH | GISWNSGSAGYADSVK | MGRGGHYFDY
28 µM | 1 of 3 | GFTFDDYAMH | GISWNSGAIGYADSVK | VGRGRGLFDY
69 µM | 2 of 3 | GFTQDDYAMH | GISFNSGSIGYADSVK | VPRGGGYFDY
not detected | 0 of 3 | GFTFDDSAMH | GISWNSGQIGYADSVK | VGRGGGYFDY
1.1 µM | 3 of 3 | GFTFDDYAMH | GISGNCGSIGYADSVK | VGRGGGYFDF
not detected | 0 of 3 | GFTFDDYAMH | GISWNSSSIGYADSVK | VGRGKGYFDS
630 µM | 2 of 3 | GFTFDDWAMH | GISWNSGSIDYADSVK | VGRGGGYFTY
3.2 µM | 1 of 3 | GFTFDCYAMH | GISWNSGSIGYADSVK | VGRNGGYFDY
not detected | 0 of 3 | GGTFDDYAMH | GISWNSGSIGYADSVK | VGRGGPYFDP
not detected | 0 of 3 | GFTFDDYAMH | GISWNSGSIGYADEVK | FYRGGGYFDY
260 µM | 2 of 3 | GFTFDDYAMH | GISWNSGFYGYADSVK | VGRGGGYFVY
not detected | 0 of 3 | GFTFMDYAMH | GISWNSGSIGYADSFK | VGRGGGYFDE
1.3 µM | 3 of 3 | GFMFDDYAMH | GISWNSGSIGYADSVK | VGRGGWYEDY
18 nM | 3 of 3 | GFTFDDYAMH | GISWNSGSVGYADSVK | VGRGGGDFDA